Measurements from ChEMBL document CHEMBL1148306, “Reducing the peptidyl features of caspase-3 inhibitors: a structural analysis” (J Med Chem, 2004).

Target: T1, Caspase-3 (Homo sapiens, UniProt P42574)
T1 sequence (P42574 whole entry): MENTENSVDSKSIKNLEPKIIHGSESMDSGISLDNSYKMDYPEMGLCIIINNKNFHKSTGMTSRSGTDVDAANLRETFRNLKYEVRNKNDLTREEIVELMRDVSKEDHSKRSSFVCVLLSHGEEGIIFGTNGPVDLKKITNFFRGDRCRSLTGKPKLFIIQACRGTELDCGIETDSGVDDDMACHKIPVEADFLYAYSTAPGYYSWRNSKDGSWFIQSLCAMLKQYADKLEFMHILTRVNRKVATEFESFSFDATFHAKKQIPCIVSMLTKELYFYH
Experiment: Inhibitory concentration of compound against caspase-3

Q: For `CC(=O)N[C@@H](CC(=O)O)C(=O)N[C@@H](CCC(=O)O)C(=O)N[C@H](C(=O)N[C@H](C=O)CC(=O)O)C(C)C`, which IC50 is on record?
A: 43.9 nM
